## scFv variants of Ab-14 (light chain) against a SARS-CoV-2 spike peptide

Reference: Li et al. 2023, doi:10.1038/s41467-023-39022-2. File: FLAb, binding data.

Target: peptide PDVDLGDISGINAS, taken from heptad repeat 2 (HR2) of SARS-CoV-2 spike.

Parent scFv Ab-14: VH joined to VL by the linker GGGGSGGGGSGGGGS. Changes lie in the light chain CDRs alone.
VH: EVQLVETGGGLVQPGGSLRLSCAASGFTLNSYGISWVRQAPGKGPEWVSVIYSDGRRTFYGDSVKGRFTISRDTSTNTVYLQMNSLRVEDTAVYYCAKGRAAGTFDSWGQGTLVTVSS
VL: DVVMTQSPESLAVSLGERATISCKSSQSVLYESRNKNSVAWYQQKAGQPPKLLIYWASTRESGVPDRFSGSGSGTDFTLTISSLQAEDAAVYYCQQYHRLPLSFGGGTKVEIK

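The parent was found by panning a naive human phage display library on the peptide. These sequences belong to a second round, designed from the earlier measurements on random variants of the parent. Their group label is 14L_En_HC (En: ensemble of fine-tuned language models; HC: hill climbing; a sequence that several methods proposed may carry one label only). The assay is AlphaSeq: two haploid yeast populations carry antibody and antigen on their surface. The frequency of each diploid, read from paired DNA barcodes, reflects how well the two displayed proteins bind. Scores were corrected for input abundance and mapped to Kd with protein pairs of known affinity run in the same pool. There are six technical replicates.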

Variants are written as CDR1, CDR2 and CDR3 of the light chain (limits as in the source). Parent: KSSQSVLYESRNKNSVA, WASTRES, QQYHRLPLS.
Affinities are written as log10 Kd with Kd in nM; a lower number is a better binder.
"ND" means that the variant was in the library but no mating with the target was seen in that replicate; the authors take this as a sign of poor binding, and no number exists.
As a blank, each scFv also met three strains without target: over all light chain designs, 4% of these pairings were detected, typically at 2.64 and seldom below 1.59. For each scFv, signals with the empty controls are counted beside the result, with their mean in brackets.

CDR-L1 | CDR-L2 | CDR-L3 | log10 Kd, replicates | signal with controls
MIAESVGYQSKNKNSVA | DNSTRED | QCYDRLPLS | ND ND ND ND ND ND | 0 of 18
KLRQSTVIESFNKNNVA | EMTNRES | QSYDRLPLS | 2.80 ND ND ND 3.20 ND | 0 of 18
KLSQFVGGESRNKSSLA | DNSTRES | QQYHRLPLS | 1.92 1.61 1.43 1.12 1.87 1.53 | 1 of 18 (3.05)
KLSISYLFEQLEKNSIA | ENSTREK | QHYHRLPLS | 2.35 ND ND ND ND ND | 0 of 18
KISQSINVGSKNKNSLA | EMSTREF | QDYHRLPLS | 0.41 0.09 0.14 -0.21 0.01 0.15 | 0 of 18
KVSEMMAFLSSNRNSVA | DNSTRGA | QQYHRLPLS | 1.93 1.29 1.42 1.13 1.73 2.14 | 0 of 18
KISQNMGETQRNKHSVA | EVSLVPD | QQYWRLPLS | 1.43 1.05 0.69 1.05 1.07 1.39 | 1 of 18 (2.89)
HFSQVTMYGMWNKNSVA | QTSTREE | QQYDRLPLS | 1.06 1.04 1.06 0.99 1.27 1.84 | 1 of 18 (2.54)
ILYESVGTLSRNKNSVA | DNSTREY | QQYDRLPLS | ND 2.87 3.09 ND 3.10 1.91 | 0 of 18
MVGQGLMGESRAKNSIA | HASLRFD | QHYHRLPLI | 0.65 0.67 1.15 2.64 0.25 0.91 | 2 of 18 (1.53)
TISQVTGLLQHNTNSVA | DMNTRGS | QQYDRLPLS | 0.61 0.07 0.07 -0.01 0.39 0.17 | 3 of 18 (2.05)
TISQSFLMENQFKNSVA | QASTRLS | QCYDRLPLS | 0.39 0.34 0.57 0.64 0.99 0.54 | 1 of 18 (1.17)
KLSIVGLHESIDKKSIA | ERSTREN | QQYHRLPLS | 0.58 0.11 0.17 0.26 0.36 0.59 | 1 of 18 (2.23)
NFSQMVLTGSTLKNSVA | HASTREE | QQYHRLPLI | 0.85 0.76 1.07 1.18 1.23 1.18 | 1 of 18 (1.83)
AISQSMDMTSRNVNSVA | DLTTRGN | QQYHRLPLS | 0.40 0.15 0.14 0.03 0.13 0.29 | 0 of 18
KLYQSMGYLSHAKNSIA | DMSRREN | QQYHRLPLS | 0.25 0.63 0.27 0.04 0.21 0.15 | 0 of 18
ILSQSVLMGSHLKNSVA | QASTRFS | QQYHRLPLI | 0.33 0.68 0.33 0.29 1.04 0.96 | 0 of 18
KLRQVTGYESYIRNSVA | QMSTRAE | QDYHRLPLS | 0.55 0.27 1.66 0.50 0.18 1.28 | 0 of 18
QLMQVGGYESNAHNSIA | DLRTRES | QQYHRLPLS | 1.01 0.82 2.06 0.79 1.29 1.02 | 0 of 18
MISQSFLIGSRIKNSVA | QTSTRES | QQYDRLPLS | 0.77 1.56 0.54 0.73 1.21 0.69 | 1 of 18 (2.77)
TVSQVHEMLSHTKNSVA | DMNTRES | QQYDRLPLS | ND 0.71 0.66 0.80 0.84 2.48 | 0 of 18
KISMATAFESRNHNSVA | ENSTRES | QSYHRLPLS | ND 2.65 ND ND ND ND | 0 of 18
KISQMSTIESIKHNSVA | QTSTRVS | QQYDRLPLS | 1.29 0.96 0.70 1.23 0.85 0.95 | 2 of 18 (1.83)
HISPSFMVESRLKNSVA | QTETREK | QQYDRLPLS | 0.45 0.90 0.50 1.36 0.55 0.88 | 1 of 18 (1.68)
HISQMWFLESKNKNNVA | EENTRED | QSYFRLPLS | 0.37 0.13 -0.08 0.24 0.34 0.31 | 0 of 18
KLSISYLFQSLEKNSIA | ENSTREK | QHYHRLPLS | ND ND ND ND ND ND | 0 of 18
KLREVQHVEIKQKNNVA | DNDTRES | QDYYRLPLS | ND ND ND 2.93 ND ND | 1 of 18 (2.44)
HISQMVMYGSCNKNNVA | QVSIRGE | QQYHRLPLS | ND ND ND ND 2.04 ND | 0 of 18
NVGQLMDGEQRNKNSVA | HQSTRED | QHYHRLPLS | 0.97 0.06 0.36 0.31 0.17 0.81 | 0 of 18
NFSQMVLTGSTLKNSVA | HASTREN | QQYHRLPLI | 2.72 2.21 1.87 3.31 1.98 1.75 | 1 of 18 (3.29)
TIAQSMLYLSNSKNSIA | QAETRES | QQYHRLPIS | 0.57 0.43 -0.09 -0.23 0.42 0.52 | 0 of 18

Top 2 of the variants detected in all replicates, tightest first:

CDR-L1 | CDR-L2 | CDR-L3 | log10 Kd, replicates | signal with controls
KISQSINVGSKNKNSLA | EMSTREF | QDYHRLPLS | 0.41 0.09 0.14 -0.21 0.01 0.15 | 0 of 18
AISQSMDMTSRNVNSVA | DLTTRGN | QQYHRLPLS | 0.40 0.15 0.14 0.03 0.13 0.29 | 0 of 18

The range of this assay differs from that of the first round, and the authors advise against merging the two.
The authors' rule: three or more of the six replicates give a measured affinity, fewer mean a poor binder.